Experiment in all cases: Ki determination for immobilized VI16742: two consecutive incubations, control beads, ligand concentration and incubation time controls (Tables 7, 8)
Holding throughout (assay type): binding

The chains behind the UniProt entries cited, without tags or fusion partners. Where a name states a change or a piece, a line headed by the entry shows the natural chain unless it says otherwise. Residues count along the entry.
UniProt P54760, 16-987: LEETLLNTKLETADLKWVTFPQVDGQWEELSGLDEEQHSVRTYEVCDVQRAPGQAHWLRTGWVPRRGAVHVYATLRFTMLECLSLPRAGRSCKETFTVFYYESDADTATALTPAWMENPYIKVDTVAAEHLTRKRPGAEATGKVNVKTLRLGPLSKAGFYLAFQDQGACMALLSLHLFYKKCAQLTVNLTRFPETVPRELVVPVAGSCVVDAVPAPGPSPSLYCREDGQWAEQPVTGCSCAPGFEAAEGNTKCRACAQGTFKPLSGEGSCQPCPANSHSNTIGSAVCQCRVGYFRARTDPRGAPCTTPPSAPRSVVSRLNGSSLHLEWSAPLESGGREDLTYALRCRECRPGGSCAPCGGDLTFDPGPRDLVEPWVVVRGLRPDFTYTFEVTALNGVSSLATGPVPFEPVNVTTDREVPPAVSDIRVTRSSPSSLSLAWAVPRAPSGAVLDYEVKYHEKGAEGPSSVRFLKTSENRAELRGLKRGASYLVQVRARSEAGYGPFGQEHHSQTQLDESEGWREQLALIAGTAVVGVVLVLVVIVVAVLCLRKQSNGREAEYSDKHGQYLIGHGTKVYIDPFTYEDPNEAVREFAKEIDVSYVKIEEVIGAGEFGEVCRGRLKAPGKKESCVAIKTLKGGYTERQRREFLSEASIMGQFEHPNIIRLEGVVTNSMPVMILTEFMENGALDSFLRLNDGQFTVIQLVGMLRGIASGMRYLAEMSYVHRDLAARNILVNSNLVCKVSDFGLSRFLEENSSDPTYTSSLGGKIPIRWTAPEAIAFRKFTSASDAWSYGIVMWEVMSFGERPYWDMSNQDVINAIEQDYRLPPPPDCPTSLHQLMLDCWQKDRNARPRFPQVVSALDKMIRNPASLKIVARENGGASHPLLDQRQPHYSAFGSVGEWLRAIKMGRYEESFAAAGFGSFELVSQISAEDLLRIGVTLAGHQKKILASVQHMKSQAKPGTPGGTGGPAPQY
UniProt Q6XUX3: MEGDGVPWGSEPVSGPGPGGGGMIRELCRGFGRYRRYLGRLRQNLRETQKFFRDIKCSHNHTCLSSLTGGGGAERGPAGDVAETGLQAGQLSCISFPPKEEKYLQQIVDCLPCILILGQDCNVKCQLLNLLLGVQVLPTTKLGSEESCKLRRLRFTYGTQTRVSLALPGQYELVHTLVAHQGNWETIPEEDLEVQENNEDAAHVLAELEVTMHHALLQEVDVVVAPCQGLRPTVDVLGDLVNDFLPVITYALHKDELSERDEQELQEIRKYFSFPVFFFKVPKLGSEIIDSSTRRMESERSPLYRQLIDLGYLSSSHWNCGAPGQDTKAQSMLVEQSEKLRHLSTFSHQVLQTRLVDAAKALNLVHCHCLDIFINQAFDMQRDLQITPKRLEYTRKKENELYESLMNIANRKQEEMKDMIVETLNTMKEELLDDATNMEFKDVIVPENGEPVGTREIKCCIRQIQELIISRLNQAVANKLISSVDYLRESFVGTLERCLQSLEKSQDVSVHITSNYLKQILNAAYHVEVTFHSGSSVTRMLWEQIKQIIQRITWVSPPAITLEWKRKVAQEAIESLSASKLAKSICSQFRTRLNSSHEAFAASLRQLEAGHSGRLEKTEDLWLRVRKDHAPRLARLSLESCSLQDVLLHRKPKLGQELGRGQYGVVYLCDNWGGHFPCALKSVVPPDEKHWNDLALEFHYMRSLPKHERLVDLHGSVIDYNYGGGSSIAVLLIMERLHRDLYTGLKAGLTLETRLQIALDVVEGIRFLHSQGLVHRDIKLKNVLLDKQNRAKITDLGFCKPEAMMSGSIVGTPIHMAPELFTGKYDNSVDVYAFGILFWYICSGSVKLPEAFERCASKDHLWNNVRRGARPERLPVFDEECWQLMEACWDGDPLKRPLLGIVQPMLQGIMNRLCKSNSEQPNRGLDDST
UniProt P50750, whole entry: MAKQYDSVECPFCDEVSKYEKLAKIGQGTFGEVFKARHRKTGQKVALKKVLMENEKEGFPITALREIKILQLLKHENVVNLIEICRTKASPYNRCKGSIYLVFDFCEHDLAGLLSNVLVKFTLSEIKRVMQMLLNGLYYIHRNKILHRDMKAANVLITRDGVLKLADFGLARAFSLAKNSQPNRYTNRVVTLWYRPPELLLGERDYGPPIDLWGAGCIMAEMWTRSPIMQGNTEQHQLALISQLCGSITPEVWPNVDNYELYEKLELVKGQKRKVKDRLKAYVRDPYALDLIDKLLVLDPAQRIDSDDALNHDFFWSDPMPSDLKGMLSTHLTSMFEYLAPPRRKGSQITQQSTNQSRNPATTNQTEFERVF
UniProt Q8NFU5: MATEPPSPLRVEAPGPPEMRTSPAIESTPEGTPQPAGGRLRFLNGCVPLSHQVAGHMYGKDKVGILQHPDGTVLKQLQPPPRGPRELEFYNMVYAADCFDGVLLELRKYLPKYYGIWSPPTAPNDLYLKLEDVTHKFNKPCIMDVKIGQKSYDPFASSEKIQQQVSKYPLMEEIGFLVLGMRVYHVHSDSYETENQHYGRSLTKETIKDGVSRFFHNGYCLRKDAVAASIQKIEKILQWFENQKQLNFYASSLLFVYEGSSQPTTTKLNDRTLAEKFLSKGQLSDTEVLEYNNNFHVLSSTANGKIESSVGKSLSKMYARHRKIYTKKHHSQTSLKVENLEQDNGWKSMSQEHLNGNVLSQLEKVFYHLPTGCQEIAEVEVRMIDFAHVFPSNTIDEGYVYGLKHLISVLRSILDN

For assay [1], the target named is cellular target proteins in HeLa cell lysate (Homo sapiens, UniProt P54760). As to conditions: Ki (VI16742), EphB4 (EPHB4) IPI00289342.
Assay [2] deals with cellular target proteins in HeLa cell lysate (Homo sapiens, UniProt Q6XUX3). As to conditions: Ki (VI16742), SgK496 (RIPK5) IPI00465346.
The target in assay [3] is cellular target proteins in HeLa cell lysate (Homo sapiens, UniProt P50750). Conditions: Ki (VI16742), CDK9 IPI00552413.
For assay [4], the target named is cellular target proteins in HeLa cell lysate (Homo sapiens, UniProt Q8NFU5). As to conditions: Ki (VI16742), IPMK IPI00168907.
The target in assay [5] is T1, cellular target proteins in HeLa cell lysate (Homo sapiens, UniProt Q8TD19).
T1 sequence (Q8TD19 1-979): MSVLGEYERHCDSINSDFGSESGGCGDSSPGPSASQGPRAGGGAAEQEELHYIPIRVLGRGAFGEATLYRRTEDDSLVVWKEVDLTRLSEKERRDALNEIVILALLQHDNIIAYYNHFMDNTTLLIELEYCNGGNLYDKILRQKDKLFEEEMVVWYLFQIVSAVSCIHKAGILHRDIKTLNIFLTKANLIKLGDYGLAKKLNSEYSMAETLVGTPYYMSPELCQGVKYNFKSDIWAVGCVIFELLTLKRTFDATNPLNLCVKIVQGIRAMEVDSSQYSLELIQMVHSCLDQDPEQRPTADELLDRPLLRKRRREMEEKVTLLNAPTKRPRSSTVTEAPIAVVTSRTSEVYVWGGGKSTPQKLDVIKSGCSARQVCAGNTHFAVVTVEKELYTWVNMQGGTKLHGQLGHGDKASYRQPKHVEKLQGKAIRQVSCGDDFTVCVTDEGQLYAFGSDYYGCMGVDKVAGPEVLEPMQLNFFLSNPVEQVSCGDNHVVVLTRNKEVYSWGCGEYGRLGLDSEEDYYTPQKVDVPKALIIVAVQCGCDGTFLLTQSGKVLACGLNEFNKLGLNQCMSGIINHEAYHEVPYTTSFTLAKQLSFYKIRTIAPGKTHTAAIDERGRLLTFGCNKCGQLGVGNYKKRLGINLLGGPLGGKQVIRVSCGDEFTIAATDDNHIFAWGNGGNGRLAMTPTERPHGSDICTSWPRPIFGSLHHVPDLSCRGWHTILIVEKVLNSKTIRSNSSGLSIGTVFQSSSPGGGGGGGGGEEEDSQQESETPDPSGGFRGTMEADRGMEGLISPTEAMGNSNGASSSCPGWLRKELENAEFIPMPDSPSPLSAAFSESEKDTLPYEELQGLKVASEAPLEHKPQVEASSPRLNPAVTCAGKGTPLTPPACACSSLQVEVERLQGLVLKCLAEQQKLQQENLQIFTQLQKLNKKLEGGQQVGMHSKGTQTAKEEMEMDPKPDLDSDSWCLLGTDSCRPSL
As to conditions: Ki (VI16742), NEK9 IPI00301609.

Assay [6] has as its target T2, cellular target proteins in HeLa cell lysate (Homo sapiens, UniProt O94768).
T2 sequence (O94768 1-372): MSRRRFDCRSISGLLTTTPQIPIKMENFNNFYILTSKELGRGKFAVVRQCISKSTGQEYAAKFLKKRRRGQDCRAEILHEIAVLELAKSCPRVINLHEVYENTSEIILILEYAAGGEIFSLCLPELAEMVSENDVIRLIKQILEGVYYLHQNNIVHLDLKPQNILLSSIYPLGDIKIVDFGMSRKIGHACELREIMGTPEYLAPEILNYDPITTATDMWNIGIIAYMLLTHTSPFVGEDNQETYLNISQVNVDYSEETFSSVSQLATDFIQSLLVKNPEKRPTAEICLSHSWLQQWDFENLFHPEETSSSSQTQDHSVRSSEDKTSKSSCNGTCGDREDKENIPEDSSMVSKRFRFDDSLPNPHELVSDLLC
Conditions: Ki (VI16742), DRAK2 (STK17B) IPI00014934.

The structures appear in SMILES notation. pKi: −log10 of the molar value.

Take `CC(C)n1c(=O)ccc2cnc(Nc3ccc(OCCN)cc3)nc21` [V16742]: the negative logarithm of the Ki (pKi) (commonly the Ki on a negative log10 scale, so that one unit is a factor of ten) is 4.38 in assay [1]; 4.80 in assay [2]; 5.13 in assay [3]; 4.73 in assay [4]; 5.64 in assay [5]; 5.43 in assay [6].

These data come from patent US8959984B2, “Proteome-wide quantification of small molecule binding to cellular target proteins” (priority 2007, dated 2015).
